Curated experimental data: properties

From the experimental data distributed with OPERA 2.9.

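The OPERA project collected these measurements from public sources as training and test data for property models. A listed value is a point estimate from one report or more. Conditions of the individual experiments are not part of the data. The measured form (salt, isomer or mixture) is not always the one drawn. Some entries may be limits or estimates that an upstream database listed as plain numbers.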

The melting point is given in degrees Celsius. Boiling points are in °C, nominally at 760 mmHg. The octanol-water partition coefficient is given as log10; larger values mean a more lipophilic compound. Water solubility is log10 of mol/L, nominally at 25 °C; higher is more soluble. Vapor pressures (log10 mmHg) refer to near room temperature, 15 to 30 °C; higher is more volatile. The unbound fraction in human plasma runs from 0 (all bound) to 1 (all free). Intrinsic clearance (human, µL/min per 10^6 hepatocytes): higher is faster turnover, and 0 stands for none detected. "–" marks a cell with nothing listed here.

- CCOC(=O)O[C@]1(C(=O)COC(=O)CC)CC[C@H]2[C@@H]3CCC4=CC(=O)C=C[C@]4(C)[C@H]3[C@@H](O)C[C@@]21C [Prednicarbate]: logP 2.9; water solubility -4.939 (log10 mol/L)
- CCC1(CC=C2CCCc3cc(OC)ccc32)C(=O)CCC1=O: mp 68 °C; logP 4.3; water solubility -4.839 (log10 mol/L)
- [F][Sb-]([F])([F])([F])([F])[F].c1ccc(Sc2ccc([S+](c3ccccc3)c3ccccc3)cc2)cc1: mp 122 °C; logP -0.025
- C=CC(C)(CCC=C(C)C)OC(=O)N(C)C (configuration not stated): mp -50.15 °C; logP 4.3; water solubility -3.527 (log10 mol/L); vapor pressure -2.064 (log10 mmHg)
- CCCC(=O)OCCC(C)CCC=C(C)C (configuration not stated) [Citronellyl butyrate]: water solubility -5.143 (log10 mol/L); vapor pressure -1.202 (log10 mmHg)
- CCCC1CCC(C2CCC(C(F)(F)Oc3cc(F)c(F)c(F)c3)CC2)CC1 (configuration not stated): mp 41.9 °C; bp 353.5 °C; water solubility -6.369 (log10 mol/L); vapor pressure -7.784 (log10 mmHg)
- CC(=O)OCc1ccc2c(c1)OCO2 [Piperonyl acetate]: mp 51 °C; water solubility -2.25 (log10 mol/L); vapor pressure -2.73 (log10 mmHg)
- CN1CCC[C@@H]1CCO[C@](C)(c1ccccc1)c1ccc(Cl)cc1 [Clemastine]: mp 178 °C; logP 5.2
- Sc1cccc(S)c1 [1,3-Benzenedithiol]: mp 27 °C; bp 245 °C
- O=[N+]([O-])c1cc(Cl)c(OC(F)(F)C(F)C(F)(F)F)cc1Cl (configuration not stated): mp -72 °C; logP 4.3; water solubility -4.806 (log10 mol/L)
- Fc1ccc(C2=CCC(C3CCC4(CC3)OCCO4)CC2)cc1F (configuration not stated): mp 101.6 °C; bp 399.5 °C; water solubility -7.144 (log10 mol/L); vapor pressure -7.268 (log10 mmHg)
- CC(C)CCC(C)Nc1ccc(N)cc1 (configuration not stated) [1,4-Benzenediamine, N1-(1,4-dimethylpentyl)-]: mp 51.5 °C; logP 3.5; vapor pressure -4.401 (log10 mmHg)
- COCCOCCOc1cc(Nc2c(C)cc(C)c(S(=O)(=O)[O-])c2C)c2c(c1N)C(=O)c1ccccc1C2=O.[Na+]: mp 191 °C; logP -0.27
- CCCCCCCC/C=C\CCCCCCCC(=O)OCC(C)OC(=O)CCCCCCC/C=C\CCCCCCCC (stereo partly drawn) [1-Methyl-1,2-ethanediyl 9-octadecenoate]: mp -15 °C; logP 8.474
- CCOc1ncc(C)c2c1C(c1ccc(C#N)cc1OC)C(C(=O)OCCC#N)=C(C)N2 (configuration not stated): mp 195.7 °C; water solubility -6.174 (log10 mol/L)
- CC1=CC(=O)N(Cc2cccc(CN3C(=O)C=C(C)C3=O)c2)C1=O: mp 85 °C; logP 2.22; water solubility -3.9 (log10 mol/L); vapor pressure -6.426 (log10 mmHg)
- C=C[C@H]1CC[C@H]([C@H]2CC[C@H](CCC)CC2)CC1: mp 34.4 °C; bp 329 °C; water solubility -7.069 (log10 mol/L); vapor pressure -3.771 (log10 mmHg)
- CO[C@H]1C[C@H](O[C@H]2[C@H](C)O[C@@H](O[C@@H]3C(C)=CC[C@@H]4C[C@@H](C[C@]5(C=C[C@H](C)[C@@H](C6CCCCC6)O5)O4)OC(=O)[C@@H]4C=C(C)[C@@H](O)[C@H]5OCC(=CC=C[C@@H]3C)[C@]54O)C[C@@H]2OC)O[C@@H](C)[C@@H]1O [Doramectin]: logP 4.41; water solubility -7.561 (log10 mol/L); vapor pressure -6.28 (log10 mmHg)
- CCCCOCCOCCOC(=O)CCCCC(=O)OCCOCCOCCCC [Bis[2-(2-butoxyethoxy)ethyl] adipate]: logP 3.24; water solubility -2.882 (log10 mol/L)
- COC(=O)c1c(Cl)c(Cl)c(C(=O)OC)c(Cl)c1Cl [Chlorthal-dimethyl]: plasma fu 0.01666; intrinsic clearance 38.62 µL/min/10^6 cells
- COC(=O)c1cc(CO)nn1-c1ncccc1Cl: mp 102.5 °C; logP 3.143
- Clc1ccccc1-c1nc(-c2ccccc2)c(-c2ccccc2)n1C1(c2ccccc2Cl)N=C(c2ccccc2)C(c2ccccc2)=N1: water solubility -7.12 (log10 mol/L); vapor pressure -8.142 (log10 mmHg)
- O=C(/C=C/c1ccc(O)c(O)c1)N[C@@H](Cc1ccc(O)cc1)C(=O)O [Caffeoyl-N-tyrosine]: logP -2.04; water solubility -2.934 (log10 mol/L)
- Cc1ccc(S(=O)(=O)O)cc1N [Benzenesulfonic acid, 3-amino-4-methyl-]: logP -1.53; water solubility -1.032 (log10 mol/L)
- Cc1cc(-c2ccc(N=C=O)c(C)c2)ccc1N=C=O [3,3'-Dimethyl-4,4'-diphenylene diisocyanate]: logP 4.5; water solubility -2.308 (log10 mol/L); vapor pressure -6.16 (log10 mmHg)
- CC(=O)OC1CC2CC1C1CC=CC21 (configuration not stated) [Jasmacyclen]: mp -10.3 °C; logP 3.9
- CC(=O)c1cccc(C(F)(F)F)c1 [Ethanone, 1-[3-(trifluoromethyl)phenyl]-]: mp -0.8 °C; logP 2.55; water solubility -2.482 (log10 mol/L); vapor pressure -0.581 (log10 mmHg)
- CCn1cc[n+](C)c1.F[B-](F)(F)F [1-Ethyl-3-methylimidazolium tetrafluoroborate]: logP 0.012; vapor pressure -7.637 (log10 mmHg)
- C=CC(=O)Cc1c(C(C)c2cc(C(C)(C)CC)cc(C(C)(C)CC)c2O)cc(C(C)(C)CC)cc1C(C)(C)CC (configuration not stated): mp 118.5 °C; water solubility -8.039 (log10 mol/L)

Excerpt, the final 3 entries:

| structure (SMILES) | name | mp (°C) | bp (°C) | logP | water solubility (log10 mol/L) | vapor pressure (log10 mmHg) | plasma fu | intrinsic clearance (µL/min/10^6 cells) |
|---|---|---|---|---|---|---|---|---|
| CC(=O)c1cccc(C(F)(F)F)c1 | Ethanone, 1-[3-(trifluoromethyl)phenyl]- | -0.8 | – | 2.55 | -2.482 | -0.581 | – | – |
| CCn1cc[n+](C)c1.F[B-](F)(F)F | 1-Ethyl-3-methylimidazolium tetrafluoroborate | – | – | 0.012 | – | -7.637 | – | – |
| C=CC(=O)Cc1c(C(C)c2cc(C(C)(C)CC)cc(C(C)(C)CC)c2O)cc(C(C)(C)CC)cc1C(C)(C)CC (configuration not stated) | – | 118.5 | – | – | -8.039 | – | – | – |